The values below are quoted from earlier work in article PMC3254090 (ACS chemical neuroscience, 2011).

The conditions of this data set: cited from earlier work.

6-hydroxytrypargine [compound 6]: the toxicity entry is listed as “highly toxic”.
